# Measured affinities in a library of Ab-14 light chain variants

Antigen: PDVDLGDISGINAS, a 14-residue peptide of the SARS-CoV-2 spike HR2 region.

Each scFv is VH, the linker GGGGSGGGGSGGGGS, VL, as in the parent Ab-14, and differs from it in the CDRs of the light chain only.
VH: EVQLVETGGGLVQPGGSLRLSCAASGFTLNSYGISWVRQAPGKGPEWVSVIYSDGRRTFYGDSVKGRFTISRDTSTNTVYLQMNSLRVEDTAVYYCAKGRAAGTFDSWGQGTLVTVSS
VL: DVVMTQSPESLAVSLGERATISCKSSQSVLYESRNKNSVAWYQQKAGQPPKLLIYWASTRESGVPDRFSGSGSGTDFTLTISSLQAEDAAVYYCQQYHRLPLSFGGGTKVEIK

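Designed CDR sequences, proposed from the first random library and measured here. Their group label is 14L_En_HC (En: ensemble of fine-tuned language models; HC: hill climbing; a sequence that several methods proposed may carry one label only). In AlphaSeq, yeast of one mating type display the scFv and yeast of the other type display the target. Pairs that bind mate more often; barcode pairs of the diploids are counted by sequencing. The ratio of observed to expected reads was calibrated, replicate by replicate, on BCL2-family standards whose Kd was known from biolayer interferometry. The assay was run in six technical replicates.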

Variants are written as CDR1, CDR2 and CDR3 of the light chain (limits as in the source). Parent: KSSQSVLYESRNKNSVA, WASTRES, QQYHRLPLS.
The read-out is the apparent dissociation constant on a log10 scale (nM): the lower, the stronger.
Averages over replicates are reported, and they cover detected replicates only.
"nd" means that the variant was in the library but no mating with the target was seen in that replicate; the authors take this as a sign of poor binding, and no number exists.
As a blank, each scFv also met three strains without target: over all light chain designs, 4% of these pairings were detected, typically at 2.64 and seldom below 1.59. For each scFv, signals with the empty controls are counted beside the result, with their mean in brackets.
Of ten entries with the parent sequence, four were seen in most replicates (averages 0.34 to 2.37), three in one and three in none, so single entries are noisy.
The authors averaged sequences with at least three values out of six and counted those with two or fewer as poor binders.
The range of this assay differs from that of the first round, and the authors advise against merging the two.

| CDR-L1 | CDR-L2 | CDR-L3 | log10 Kd (nM) by replicate | mean log10 Kd (nM) | empty controls |
|---|---|---|---|---|---|
| IISMMVGTKGYNKNSVA | NAETRED | QQYHRLPLS | nd nd nd nd nd nd | nd | 0 of 18 |
| KLSMSYRYESQEKNSIA | EMSTREE | QSYHRLPLS | 3.45 1.75 1.41 0.86 1.85 nd | 1.87 | 1 of 18 (1.44) |
| TISQSLLMQTSHKNNVA | GEETRYS | QQYHRLPLS | 0.27 0.39 0.37 0.22 0.69 0.40 | 0.39 | 0 of 18 |
| MLLQATMYGERNRNSVA | HASTRED | QEYHRLPLI | 0.66 0.39 0.65 0.71 0.78 0.90 | 0.68 | 0 of 18 |
| KIGGVTNGISFKKNSVA | EQSTRED | QQYDRLPLS | 0.87 0.73 1.70 0.42 0.64 0.94 | 0.88 | 0 of 18 |
| IISQVDAYHSRNKNSIA | DQSTRGS | QQYDRLPLS | nd nd nd nd nd nd | nd | 1 of 18 (1.91) |
| MFSQGVMVGWLTRNSVA | NSETRES | QQYHRLPLS | 2.39 0.72 0.54 1.17 1.07 0.54 | 1.07 | 0 of 18 |
| KVSQSVLMMTRNKNSVA | DNSTSGS | QQYHRLPLS | 1.49 2.11 1.44 2.04 1.34 1.70 | 1.68 | 2 of 18 (2.58) |
| KLSMSALMESFHKNSVA | ENSTREE | QHYHRLPLS | nd 2.63 2.97 nd nd nd | 2.80 | 2 of 18 (3.61) |
| TISTSMRYEMSLKNAIA | NAQTRES | QQYHRLPIS | 2.42 1.32 1.13 1.26 1.39 1.62 | 1.52 | 0 of 18 |
| KISMLYNYASTNKNSIA | EMTTREM | QHYHRLPLS | 1.18 1.20 1.11 0.75 1.07 0.93 | 1.04 | 1 of 18 (2.05) |
| KLGQVTETMSLNRNSVA | HMSTRED | QQYHRLPLS | 0.99 0.46 0.44 0.41 0.54 0.74 | 0.60 | 0 of 18 |
| KLGQMTAIESQNLNSVA | QMDTRES | QQYHRLPLS | 0.14 0.14 0.18 0.26 0.19 0.25 | 0.19 | 1 of 18 (3.48) |
| KIGGVTNGISRMKNSVA | EQSTRED | QQYNRLPLS | 1.22 1.22 1.08 0.96 0.92 1.23 | 1.10 | 0 of 18 |
| ILSDSVLSLSRNKNSVA | DNSTRES | QQYDRLPLS | 1.57 1.64 2.63 2.22 2.09 2.23 | 2.06 | 0 of 18 |
| KLSATYRYESQNKNSIA | EMSTREA | QCYHRLPLS | 1.73 2.06 2.06 2.47 2.40 nd | 2.14 | 0 of 18 |
| SLMQVGGYLSNNKNSIA | DLRTRES | QQYHRLPLS | 0.59 0.59 0.53 0.28 0.47 0.33 | 0.47 | 2 of 18 (2.02) |
| NVGQLMDGETRNRNSVA | HQSTRED | QHYHRLPLS | 0.26 0.15 0.59 0.94 0.96 0.45 | 0.56 | 0 of 18 |
| TISTSAMYESINKNSVA | ELSTRGS | QQYERLPLS | 1.98 1.06 1.26 1.27 0.95 1.73 | 1.38 | 1 of 18 (2.24) |
| KLRMLTLTEGYFKNSVA | QASTREN | QSYHRLPLS | 1.25 0.69 1.05 0.63 0.88 0.94 | 0.91 | 1 of 18 (3.45) |
| MFSQTVMYGSTMRNNVA | QTSTRES | QQYDRLPLS | 0.75 1.66 1.10 0.09 1.06 1.11 | 0.96 | 0 of 18 |
| SLMQVTGYESNNKNSIA | DLRTRES | QQYHRLPLS | 0.62 1.04 0.08 0.56 0.52 0.62 | 0.57 | 1 of 18 (3.48) |
| KISQMFNVGTKNTNSLA | EMNTRGF | QDYHRLPLS | 0.20 0.17 0.69 0.80 0.86 1.00 | 0.62 | 1 of 18 (1.36) |
| KLSQVTHSEMKVKNSIA | EMVTREK | QQYDRLPLS | nd 1.46 nd nd 1.92 1.50 | 1.63 | 0 of 18 |
| LISGVIDYGSRNYNSVA | QTSTRES | QQYDRLPLS | 0.44 0.54 0.17 0.25 0.84 0.86 | 0.52 | 1 of 18 (1.34) |
| KVSDMMAFLSRNRNSVA | DNSTRGS | QQYHRLPLS | 1.83 1.17 nd 1.45 3.14 1.76 | 1.87 | 0 of 18 |
| MMSYGWLYGSRNKRNVA | DRETREH | QQYDRLPLS | 0.58 0.35 0.09 0.38 0.23 0.24 | 0.31 | 1 of 18 (2.31) |
| KVNGLMGIEQMNSKSVA | HSSTREN | QQYHRLPLS | 0.53 0.15 0.16 -0.03 0.18 0.35 | 0.22 | 4 of 18 (3.19) |
| KLSQSVMFMSGVYNSVA | QMSTRAE | QQYNRLPLS | 0.15 0.00 -0.12 0.32 -0.27 -0.18 | -0.02 | 0 of 18 |
| KLSISMLHESIHKHSVA | EVRTRES | QQYDRLPLS | 1.07 1.02 0.72 1.16 1.60 0.82 | 1.07 | 0 of 18 |
| KISMLYNFASTNKNSIA | EMTTRED | QHYHRLPLS | 2.05 1.37 1.48 1.25 1.65 2.75 | 1.76 | 0 of 18 |
| KISMLQRYASQNKNSIA | EMSRREN | QQYHRLPLS | 0.09 -0.05 0.00 0.02 -0.05 0.00 | 0.00 | 1 of 18 (3.25) |
| TLTQVQGMESHNKDNVA | DLSTRGN | QQYDRLPLS | 0.33 0.69 0.83 0.73 1.02 0.74 | 0.72 | 3 of 18 (2.31) |
| KLSQSVRMESFDKNSVA | ENSTREA | QDYHRLPLS | 2.51 nd nd nd nd nd | 2.51 | 0 of 18 |
| MLLQTTMYGERNRNSVA | HASTRED | QQYHRLPLI | 0.65 0.71 1.59 1.00 1.08 1.01 | 1.01 | 0 of 18 |
| MFSQGVMVGWLTRNSVA | NSSTRES | QQYDRLPLS | 1.12 1.85 1.06 nd nd 1.32 | 1.34 | 0 of 18 |
| QLYAVQDLTSKNSNNVA | EQTTREN | QQYHRLPLS | 1.34 1.04 1.25 0.48 1.27 1.24 | 1.10 | 1 of 18 (3.32) |

The first 2 variants above that were never detected:

{"CDR-L1": "IISMMVGTKGYNKNSVA", "CDR-L2": "NAETRED", "CDR-L3": "QQYHRLPLS", "log10 Kd (nM) by replicate": "nd nd nd nd nd nd", "mean log10 Kd (nM)": "nd", "empty controls": "0 of 18"}
{"CDR-L1": "IISQVDAYHSRNKNSIA", "CDR-L2": "DQSTRGS", "CDR-L3": "QQYDRLPLS", "log10 Kd (nM) by replicate": "nd nd nd nd nd nd", "mean log10 Kd (nM)": "nd", "empty controls": "1 of 18 (1.91)"}

Reference: Li et al. 2023, doi:10.1038/s41467-023-39022-2. File: FLAb, binding data.